In patent US7973024B2, “24-sulfoximine vitamin D3 compounds” (Cyctochroma Inc., priority 2002, dated 2011):

Target: T1, CYP27A1 (Homo sapiens, UniProt Q02318)
T1 sequence (Q02318 34-531): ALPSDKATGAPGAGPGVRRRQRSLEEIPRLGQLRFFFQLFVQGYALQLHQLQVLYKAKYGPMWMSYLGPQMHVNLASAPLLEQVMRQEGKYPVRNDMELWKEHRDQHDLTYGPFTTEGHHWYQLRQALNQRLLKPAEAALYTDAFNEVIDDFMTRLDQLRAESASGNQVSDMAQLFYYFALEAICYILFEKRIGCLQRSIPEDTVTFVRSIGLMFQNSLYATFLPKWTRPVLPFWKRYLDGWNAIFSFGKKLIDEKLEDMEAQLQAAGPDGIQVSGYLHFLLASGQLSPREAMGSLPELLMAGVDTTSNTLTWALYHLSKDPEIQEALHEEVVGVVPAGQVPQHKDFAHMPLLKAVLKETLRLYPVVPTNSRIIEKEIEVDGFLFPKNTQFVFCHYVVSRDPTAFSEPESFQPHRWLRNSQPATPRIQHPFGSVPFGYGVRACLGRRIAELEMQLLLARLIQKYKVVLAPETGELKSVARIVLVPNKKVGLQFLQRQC
Assay: CYP27A1 enzyme assay
Type: biochemical

C=C1/C(=C\C=C2/CCC[C@]3(C)[C@@H]([C@H](C)CCS(=N)(=O)c4ccccc4)CC[C@@H]23)C[C@@H](O)C[C@@H]1O (single isomer, unassigned) [I(a)]
IC50: > 1000 nM
